Measured values published in PubChem BioAssay (Tox21).
Where “and” joins values, the source holds several entries; their conditions need not be identical. Identical values can stand only once. Only a part is listed here, and it is no random draw. Inconclusive results are not listed. Calls of active or inactive are those of the source. The call rests on the fitted dose curve.

Target: Beta-2 adrenergic receptor (Homo sapiens) (UniProt P07550)
Assay: Adrenergic beta2 receptor (ADRB2) small molecule antagonists, cell-based qHTS assay (AID 1963592); further: nearly all actives have a fitted effect of over 50% in size
Conditions: CHO-ADRB2 cells, isoproterenol-stimulated cAMP HTRF ratio, 0.5 h; at 92.4 µM (top of the series) unless noted
Text: U.S. Tox21 Program National Center for Advancing Translational Sciences [NCATS] Division of Preclinical Innovation [DPI] U.S. Environmental Protection Agency [EPA] National Institutes of Environmental Health Sciences [NIEHS] National Toxicology Program [NTP] U.S. Food and Drug Administration [FDA] Tox21 Assay Overview: Beta adrenergic receptors (Beta-ARs) belong to the G-protein coupled receptor (GPCR) superfamily, includes three subtypes - beta1, beta2, and beta3. Beta1-AR is the predominant receptor subtype expressed in the heart, and beta2-AR is expressed in the kidney, lung, blood vessel and in the heart, and beta3 is found in the adipocytes. Beta1 and 2 ARs couple to Gs protein and elevate cyclic adenosine mono phosphate (cAMP), which activates protein kinase A and leads to the downstream signaling responsible for the physiological actions. Beta-AR agonists or antagonists are the most prescribed therapeutic agents for heart failure and asthma, and these were one of the first target receptors for the rational drug design. Tox21 10K compound library was screened using the cAMP-Gs dynamic assay (Cisbio Bioassays, Shelton, CT) to identify agonists/antagonists of the Gs-coupled human adrenergic, beta2 receptor (ADRB2) in the CHO-ADRB2 cell line (Codex BioSolutions, Inc. Gaithersburg, MD), which stably over-expresses ADRB2. The principle of cAMP-Gs dynamic assay is based on HTRF technology, which facilitates the fluorescence resonance energy transfer (FRET) between donor Europium cryptate and acceptor d2-labeled cAMP. The cAMP generated within cells competes with the red acceptor, d2-labled cAMP, for binding to the monoclonal anti-cAMP-cryptate (Europium donor). An increase in intracellular cAMP leads to the disruption of FRET signal, and the signal is inversely proportional to the cAMP concentration. Propranolol HCl (Sigma-Aldrich, St. Louis, MO) was used as a positive control in the screening.
Tox21 Assay Protocol Summary: CHO-ADRB2 cells were dispensed at 1,000/well in 4uL assay medium into white/solid 1536-well plates (Greiner Bio-One North America Inc., Monroe, NC) using a Multidrop Combi dispenser (ThermoFisher Scientific, Waltham, MA). The assay plates were incubated at 37C and 5% CO2 for an overnight (18-20hr). Then positive control and test compounds dissolved in DMSO were transferred to the assay plates at 23nL using a Pintool station (Wako, San Diego, CA). Following the compound and positive control transfer, 1uL agonist-stimulation mix containing 1nM Isoproterenol HCl, 100uM IBMX and 25uM Ro-20-1724 was added to each well of the assay plates using BioRAPTR Flying Reagent Dispenser (FRD, Beckman Coulter, Brea, CA). The assay plates were incubated at room temperature for 0.5hr. Then 2.5ul each d2-labled cAMP and anti-cAMP-cryptate solutions were added separately to each well of the assay plates using an FRD and the assay plates were incubated at room temperature for 1hr. The fluorescence signal was measured at two different wavelengths (665nm and 615nm) using an Envision plate reader (Perkin Elmer, Shelton, CT). Data were expressed as the ratio of 665 nm/615 nm.
On the % scale 0 is the no-effect control and ±100 the full control effect.

Row | Compound | activity change, negative = inhibition
1 | O=[N+]([O-])c1ccc(S(=O)(=O)O)c([N+](=O)[O-])c1 | inactive: -0.574%
2 | O=[p+]1oc2ccccc2c2ccccc21 (configuration not stated) | inactive: 2.11%
3 | COC(=O)Cl | inactive: 0.277%
4 | O=C(Cl)OCCOC(=O)Cl | inactive: 1.31%
5 | CCCCC(CC)CO[P+](=O)OCC(CC)CCCC (configuration not stated) | inactive: -0.274%
6 | CCC(C)(OOC(C)(C)C)OOC(C)(C)C | inactive: -7.73% [at 19 µM]
7 | CC(C)OP(=S)(OC(C)C)SCCNS(=O)(=O)c1ccccc1 | inactive: 8.48%
8 | O=[P+](Oc1ccccc1)Oc1ccccc1 | inactive: 15.2%
9 | O=P(Cl)(Oc1ccccc1)Oc1ccccc1 | inactive: -1.87%
10 | CCOP(=S)(CC)Sc1ccccc1 (configuration not stated) | inactive: 0.963%
11 | CCCCO[P+](=O)OCCCC | inactive: 1.02% and inactive: -16.4%
12 | O=C(Cl)Oc1ccccc1 | inactive: -1.28%
13 | Cc1cc([N+](=O)[O-])c(O)c([N+](=O)[O-])c1 | inactive: -0.618%
14 | Cc1cc([N+](=O)[O-])cc([N+](=O)[O-])c1O | inactive: -11.1%
15 | O=[N+]([O-])c1ccc([N+](=O)[O-])cc1 | inactive: -1.4%
16 | CN(N=O)C(=N)N[N+](=O)[O-] | inactive: 16.3%
17 | ClP(Cl)c1ccccc1 | inactive: 2.78%
18 | CCCCOP(OCCCC)OCCCC | inactive: -7.6%
19 | CN(C(=O)Cc1ccccc1)[C@H]1CC[C@@]2(CCCO2)C[C@@H]1N1CCCC1 | inactive: 0.99% [at 42.5 µM]
20 | O=P(Cl)(Cl)c1ccccc1 | inactive: -13.8%
21 | CCCCCCCCCCCCCC[P+](CCCCCC)(CCCCCC)CCCCCC | inactive: 0.96%
22 | O=C1C2CC=CCC2C(=O)N1SC(Cl)(Cl)C(Cl)Cl (configuration not stated) | inactive: -8.98%
23 | CCOC(=O)Cl | inactive: 0.745%
24 | COP(=S)(Cl)OC | inactive: 6.7%
25 | CN(C(=O)Cc1ccc(Cl)c(Cl)c1)[C@H]1CC[C@@]2(CCCO2)C[C@@H]1N1CCCC1 | inactive: -0.347% [at 42.5 µM]
26 | CN(C(=O)Cc1cccc2occc12)[C@H]1CC[C@@]2(CCCO2)C[C@@H]1N1CCCC1 | inactive: 11.2%
27 | CC(C)CCCCCCCOP(OCCCCCCCC(C)C)Oc1ccccc1 | inactive: 5.43%
